The values that follow are results of earlier work, collected in article PMC2812024 (Journal of medicinal chemistry, 2008).

Amino acid sequences for entries named in this document (tags omitted). A change or cut given only in a name is not applied to a line headed by its entry.
UniProt P32300, whole entry: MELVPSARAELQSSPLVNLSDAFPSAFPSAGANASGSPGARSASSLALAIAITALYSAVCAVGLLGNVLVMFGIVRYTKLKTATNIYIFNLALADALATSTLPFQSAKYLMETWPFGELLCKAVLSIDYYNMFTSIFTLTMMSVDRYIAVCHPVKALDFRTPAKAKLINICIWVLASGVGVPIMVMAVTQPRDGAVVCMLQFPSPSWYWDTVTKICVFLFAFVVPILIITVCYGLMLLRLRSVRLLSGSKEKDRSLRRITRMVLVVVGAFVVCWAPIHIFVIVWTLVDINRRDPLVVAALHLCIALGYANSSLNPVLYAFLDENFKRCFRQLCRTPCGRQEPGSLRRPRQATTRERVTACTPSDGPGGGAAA
UniProt P33535, whole entry: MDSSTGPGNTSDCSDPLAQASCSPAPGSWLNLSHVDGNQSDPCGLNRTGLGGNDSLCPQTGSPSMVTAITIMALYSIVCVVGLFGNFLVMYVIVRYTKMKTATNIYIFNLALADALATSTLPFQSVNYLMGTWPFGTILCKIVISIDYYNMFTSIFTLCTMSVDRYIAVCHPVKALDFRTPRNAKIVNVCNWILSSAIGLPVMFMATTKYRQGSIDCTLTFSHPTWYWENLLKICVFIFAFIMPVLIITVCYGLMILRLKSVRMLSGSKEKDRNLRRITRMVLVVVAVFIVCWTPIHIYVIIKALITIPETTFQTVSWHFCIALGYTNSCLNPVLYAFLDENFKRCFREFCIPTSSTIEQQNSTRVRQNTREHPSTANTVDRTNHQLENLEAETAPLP
UniProt P33533, whole entry: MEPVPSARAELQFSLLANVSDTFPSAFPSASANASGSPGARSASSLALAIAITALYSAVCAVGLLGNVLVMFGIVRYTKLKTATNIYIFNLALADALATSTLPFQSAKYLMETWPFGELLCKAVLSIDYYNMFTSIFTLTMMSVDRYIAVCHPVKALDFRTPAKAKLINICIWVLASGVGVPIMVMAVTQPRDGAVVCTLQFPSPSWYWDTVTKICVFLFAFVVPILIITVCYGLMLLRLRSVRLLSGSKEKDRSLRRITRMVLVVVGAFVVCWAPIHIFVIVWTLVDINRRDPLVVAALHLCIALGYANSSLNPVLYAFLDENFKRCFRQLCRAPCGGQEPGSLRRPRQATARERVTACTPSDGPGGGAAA

By IC50 is commonly meant the concentration at which inhibition is half-maximal. By Ki is commonly meant the equilibrium dissociation constant of an inhibitor or competing ligand from its target.

For one data set, the target named is δ-opioid receptor (Mus musculus, UniProt P32300). As to conditions: read-out: MVD IC50; δ agonism; ref Balboni et al.[5]; cited from earlier work.
A further data set concerns the target μ-opioid receptors (Rattus norvegicus, UniProt P33535). As to conditions: read-out: Receptor affinity Ki^μ; reference compounds; ref Balboni et al.[5]; cited from earlier work.
The target in another data set is δ-opioid receptors (Rattus norvegicus, UniProt P33533). As to conditions: read-out: Receptor affinity Ki^δ; reference compounds; ref Balboni et al.[5]; cited from earlier work.

As for H-Dmt-Tic-NH-CH2-Bid [Compound 3], the IC50 on δ-opioid receptor was 0.13 nM. The Ki at μ-opioid receptors is 0.5 nM; on δ-opioid receptors it was 0.035 nM.
